Test system: KP1010 (SHV-12)
Experiment: Potentiation of tigemonam, strain KP1010
Details: minimum BLI concentration inhibiting growth with 4 μg/mL tigemonam

| SMILES | TIG MPC4 SHV-12 KP1010 |
| --- | --- |
| O=C(Cc1cccs1)N[C@H]1Cc2cccc(C(=O)O)c2OB1O [CPD A, reference compound] | X (X = MIC of less than 1 μg/mL) |
| O=C(COCc1ccccc1)N[C@H]1Cc2cccc(C(=O)O)c2OB1O [CPD B, reference compound] | Y (Y = MIC of 1 μg/mL to 10 μg/mL) |
| O=C(CSC(F)(F)F)N[C@H]1Cc2cccc(C(=O)O)c2OB1O [Compound 1, (R)-2-hydroxy-3-(2-(trifluoromethylthio)acetamido)-3,4-dihydro-2H-benzo[e][1,2]oxaborinine-8-carboxylic acid] | X (X = MIC of less than 1 μg/mL) |
| Cn1nnnc1SCC(=O)N[C@H]1Cc2cccc(C(=O)O)c2OB1O [Compound 2, (R)-2-hydroxy-3-(2-(1-methyl-1H-tetrazol-5-ylthio)acetamido)-3,4-dihydro-2H-benzo[e][1,2]oxaborinine-8-carboxylic acid] | X (X = MIC of less than 1 μg/mL) |
| O=C(CSC(F)F)N[C@H]1Cc2cccc(C(=O)O)c2OB1O [Compound 3, (R)-3-(2-(difluoromethylthio)acetamido)-2-hydroxy-3,4-dihydro-2H-benzo[e][1,2]oxaborinine-8-carboxylic acid] | X (X = MIC of less than 1 μg/mL) |
| O=CN[C@H]1Cc2cccc(C(=O)O)c2OB1O [Compound 4, (R)-3-formamido-2-hydroxy-3,4-dihydro-2H-benzo[e][1,2]oxaborinine-8-carboxylic acid] | X (X = MIC of less than 1 μg/mL) |
| Nc1nnc(SCC(=O)N[C@H]2Cc3cccc(C(=O)O)c3OB2O)s1 [Compound 5, (R)-3-(2-(5-amino-1,3,4-thiadiazol-2-ylthio)acetamido)-2-hydroxy-3,4-dihydro-2H-benzo[e][1,2]oxaborinine-8-carboxylic acid] | X (X = MIC of less than 1 μg/mL) |
| NC(=O)N[C@H]1Cc2cccc(C(=O)O)c2OB1O [Compound 6, (R)-2-hydroxy-3-ureido-3,4-dihydro-2H-benzo[e][1,2]oxaborinine-8-carboxylic acid] | Y (Y = MIC of 1 μg/mL to 10 μg/mL) |
| O=C(CSc1nncs1)N[C@H]1Cc2cccc(C(=O)O)c2OB1O [Compound 7, (R)-3-(2-(1,3,4-thiadiazol-2-ylthio)acetamido)-2-hydroxy-3,4-dihydro-2H-benzo[e][1,2]oxaborinine-8-carboxylic acid] | X (X = MIC of less than 1 μg/mL) |
| [N-]=[N+]=NCC(=O)N[C@H]1Cc2cccc(C(=O)O)c2OB1O [Compound 8, (R)-3-(2-azidoacetamido)-2-hydroxy-3,4-dihydro-2H-benzo[e][1,2]oxaborinine-8-carboxylic acid] | X (X = MIC of less than 1 μg/mL) |
| CN(C)C(=O)C(=O)N[C@H]1Cc2cccc(C(=O)O)c2OB1O [Compound 9, (R)-3-(2-(dimethylamino)-2-oxoacetamido)-2-hydroxy-3,4-dihydro-2H-benzo[e][1,2]oxaborinine-8-carboxylic acid] | Y (Y = MIC of 1 μg/mL to 10 μg/mL) |
| CN(C)C(=O)CC(=O)N[C@H]1Cc2cccc(C(=O)O)c2OB1O [Compound 10, (R)-3-(3-(dimethylamino)-3-oxopropanamido)-2-hydroxy-3,4-dihydro-2H-benzo[e][1,2]oxaborinine-8-carboxylic acid] | X (X = MIC of less than 1 μg/mL) |
| CSC(=O)N[C@H]1Cc2cccc(C(=O)O)c2OB1O [Compound 11, (R)-2-hydroxy-3-(methylthiocarbonylamino)-3,4-dihydro-2H-benzo[e][1,2]oxaborinine-8-carboxylic acid] | X (X = MIC of less than 1 μg/mL) |
| O=C(N[C@H]1Cc2cccc(C(=O)O)c2OB1O)c1cccnc1 [Compound 12, (R)-2-hydroxy-3-(nicotinamido)-3,4-dihydro-2H-benzo[e][1,2]oxaborinine-8-carboxylic acid] | X (X = MIC of less than 1 μg/mL) |
| CSCC(=O)N[C@H]1Cc2cccc(C(=O)O)c2OB1O [Compound 13, (R)-2-hydroxy-3-(2-(methylthio)acetamido)-3,4-dihydro-2H-benzo[e][1,2]oxaborinine-8-carboxylic acid] | X (X = MIC of less than 1 μg/mL) |
| O=C(N[C@H]1Cc2cccc(C(=O)O)c2OB1O)c1cncc(F)c1 [Compound 14, (R)-3-(5-fluoronicotinamido)-2-hydroxy-3,4-dihydro-2H-benzo[e][1,2]oxaborinine-8-carboxylic acid] | X (X = MIC of less than 1 μg/mL) |
| O=C(N[C@H]1Cc2cccc(C(=O)O)c2OB1O)c1cncs1 [Compound 15, (R)-2-hydroxy-3-(thiazole-5-carboxamido)-3,4-dihydro-2H-benzo[e][1,2]oxaborinine-8-carboxylic acid] | X (X = MIC of less than 1 μg/mL) |
| NC(=O)CC(=O)N[C@H]1Cc2cccc(C(=O)O)c2OB1O [Compound 16, (R)-3-(3-amino-3-oxopropanamido)-2-hydroxy-3,4-dihydro-2H-benzo[e][1,2]oxaborinine-8-carboxylic acid] | X (X = MIC of less than 1 μg/mL) |
| NC(=O)C(=O)N[C@H]1Cc2cccc(C(=O)O)c2OB1O [Compound 17, (R)-3-(2-amino-2-oxoacetamido)-2-hydroxy-3,4-dihydro-2H-benzo[e][1,2]oxaborinine-8-carboxylic acid] | Y (Y = MIC of 1 μg/mL to 10 μg/mL) |
| O=C(N[C@H]1Cc2cccc(C(=O)O)c2OB1O)c1cncnc1 [Compound 18, (R)-2-hydroxy-3-(pyrimidine-5-carboxamido)-3,4-dihydro-2H-benzo[e][1,2]oxaborinine-8-carboxylic acid] | X (X = MIC of less than 1 μg/mL) |
| Nc1nnc(C(=O)N[C@H]2Cc3cccc(C(=O)O)c3OB2O)s1 [Compound 19, (R)-3-(5-amino-1,3,4-thiadiazole-2-carboxamido)-2-hydroxy-3,4-dihydro-2H-benzo[e][1,2]oxaborinine-8-carboxylic acid] | X (X = MIC of less than 1 μg/mL) |

Reference: US9101638B2, “Boronic acid derivatives and therapeutic uses thereof” (Rempex Pharmaceuticals, Inc., priority 2013, dated 2015)
